Results: PubChem BioAssay AID485 (The Scripps Research Institute Molecular Screening Center, 2006)
The entries are a selection whose mix differs from that of the whole data set. Some results for these compounds are left out of this collection, so the calls shown say nothing about other tests. Active and inactive are the calls of the source.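 Rule for the calls: active = inhibition above the plate cutoff, the mean inhibition of test wells on that plate plus 3 SD (cut at about 28% in these data); inactive = the rest.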

By UniProt entry, the sequences of proteins in these tests, tags left out.
UniProt Q99500, whole entry: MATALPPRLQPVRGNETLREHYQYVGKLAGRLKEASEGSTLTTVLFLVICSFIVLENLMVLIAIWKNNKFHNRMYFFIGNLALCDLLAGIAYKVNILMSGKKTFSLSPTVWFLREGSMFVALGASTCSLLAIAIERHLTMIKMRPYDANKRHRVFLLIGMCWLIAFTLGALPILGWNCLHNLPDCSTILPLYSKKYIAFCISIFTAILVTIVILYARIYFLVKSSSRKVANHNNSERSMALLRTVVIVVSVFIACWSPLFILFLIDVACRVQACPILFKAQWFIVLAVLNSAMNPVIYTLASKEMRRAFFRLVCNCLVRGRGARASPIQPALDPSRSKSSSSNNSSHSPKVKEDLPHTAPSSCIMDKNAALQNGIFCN

The compounds below were run against Sphingosine 1-phosphate receptor 3 (Homo sapiens) (UniProt Q99500) (assay: inhibition of S1P-stimulated S1P3 activation – cell-based, primary screen (AID 485;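 note: cells challenged with S1P at its EC80 of 0.8 µM; blue over green emission ratio from cleaved BLA substrate after 4 h stimulation; 0% = S1P-stimulated wells and 100% = unstimulated DMSO-only wells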)). Conditions: CHO S1P3 NFAT-BLA reporter, FRET fluorescence, antagonist mode; at 4.98 µM; hits give high values.

Row | Compound | inhibition
1 | CN(C)C1CCCC1OC(=O)C(O)(c1ccccc1)c1ccccc1 (stereo not given) | inactive: 0.57%
2 | Cc1ccccc1C(=O)NCC1(N2CCCCC2)CCCCC1 | inactive: -27%
3 | C=CCN1CCN(CCOC(=O)C(O)(c2ccccc2)c2ccccc2)CC1 | inactive: -4.09%
4 | CCN1CCCC(OC(=O)C2(O)c3ccccc3C=Cc3ccccc32)C1 (stereo not given) | inactive: -19.4%
5 | O=C(NCC1(N2CCCCC2)CCCCC1)c1cc([N+](=O)[O-])ccc1Cl | inactive: -1.99%
6 | CCN(CC)CC(C)C(C)OC(=O)C(O)(c1ccccc1)c1ccccc1 (stereo not given) | inactive: 7.04%
7 | O=C(OC1CN2CCC1CC2)C(CO)(c1ccccc1)c1ccccc1 (stereo not given) | inactive: -9.6%
8 | COc1ccc(Br)c(C(=O)NCC2(N3CCCCC3)CCCCC2)c1 | inactive: -2.72%
9 | CN(C)c1cccc(C(=O)NCC2(N(C)C)CCCCC2)c1 | inactive: -29.9%
10 | COc1cccc(C(=O)NCC2(N3CCCCC3)CCCCC2)c1 | inactive: -0.14%
